“And” between values parts separate entries of the source, which are not always exact repeats. Identical values can stand only once.
Biological target: human 5-HT4(b) receptor (Homo sapiens, UniProt Q13639)
Experiment: Radioligand binding assay with [3H]GR113808
Details: [3H]GR113808 competition, membranes of HEK293 cells stably expressing human 5-HT4(b) receptor; hyphen-separated values taken as single determinations

Amino acid sequences for entries named in this document (tags omitted).
UniProt Q13639, whole entry: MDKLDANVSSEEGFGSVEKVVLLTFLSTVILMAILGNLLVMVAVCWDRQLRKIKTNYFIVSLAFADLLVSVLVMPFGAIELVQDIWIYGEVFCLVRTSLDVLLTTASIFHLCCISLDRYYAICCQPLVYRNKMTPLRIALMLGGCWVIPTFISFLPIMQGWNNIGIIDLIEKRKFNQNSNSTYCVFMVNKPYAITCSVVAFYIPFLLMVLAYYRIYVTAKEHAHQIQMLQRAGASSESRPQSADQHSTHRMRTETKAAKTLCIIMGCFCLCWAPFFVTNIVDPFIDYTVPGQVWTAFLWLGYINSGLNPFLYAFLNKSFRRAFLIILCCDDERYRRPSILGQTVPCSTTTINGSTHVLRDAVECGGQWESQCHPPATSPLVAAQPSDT

COC(=O)c1ccccc1-c1ccc(CN2CCC(NC(=O)c3cc(Cl)c(N)cc3OC)CC2)cc1
Binding affinity (pKd value): 6.96 and 7.26

From patent US20120094989A1, “5-HT RECEPTOR MODULATING COMPOUNDS” (priority 2009, published 2012)
